PubChem BioAssay AID602163 (The Scripps Research Institute Molecular Screening Center, 2012)
This is a selection; strong and weak results do not stand in their true shares. Activity calls are given as the source filed them. No stated cut-off is given here; in the data, active means activation above about 7.5%; inactive means the rest.

system: Methionine sulfoxide reductase A (Bos taurus); assay: bovine MsrA enzyme activators, primary screen, biochemical, absorbance, HTS (AID 602163); settings: purified bovine MsrA, absorbance read-out; at 10.6 µM; hits give high values;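 further: 0% = vehicle and 100% = reference activator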

Row | Structure (SMILES) | activation
1 | CCC(=O)N(c1ccccc1)C1(COC)CCN(CCn2nnn(CC)c2=O)CC1 | inactive: -0.6%
2 | CCC(=O)N(c1ccccc1)C1(COC)CCN(CCc2cccs2)CC1 | inactive: -5.93%
